Source: patent US11213514B2, “Alpha-1-adrenergic receptor agonist therapy” (The Regents of the University of California, priority 2016, dated 2022)

Protein sequences, listed by entry. Tags and fused reporters are not part of them. Lines headed by an entry give the natural chain unless they say otherwise; changes in a name come on top.
UniProt P35348: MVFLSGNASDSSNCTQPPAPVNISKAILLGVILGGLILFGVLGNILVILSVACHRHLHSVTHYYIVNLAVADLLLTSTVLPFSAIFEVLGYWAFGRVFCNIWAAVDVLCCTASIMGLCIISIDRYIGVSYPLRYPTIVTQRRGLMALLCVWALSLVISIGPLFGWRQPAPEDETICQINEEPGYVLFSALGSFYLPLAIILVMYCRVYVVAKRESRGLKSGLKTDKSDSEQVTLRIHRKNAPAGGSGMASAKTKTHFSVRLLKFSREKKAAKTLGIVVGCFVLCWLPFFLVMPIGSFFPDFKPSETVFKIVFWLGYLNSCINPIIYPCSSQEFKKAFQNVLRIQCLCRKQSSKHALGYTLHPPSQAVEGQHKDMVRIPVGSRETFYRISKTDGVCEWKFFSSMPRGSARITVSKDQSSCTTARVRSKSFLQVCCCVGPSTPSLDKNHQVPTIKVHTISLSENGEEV

How the values were obtained:
[1] = tested on: ERK; assay: ERK activation in neonatal rat ventricular myocytes (pERK/ERK Western blot); type: cell-based; conditions: NRVMs, dabuzalgron 10 μM, 15 minutes
Description: FIGS. 4A-4F. In neonatal rat ventricular myocytes, dabuzalgron activates ERK, a canonical downstream signaling partner of the α1A-AR. Neonatal rat ventricular myocytes (NRVMs) were pre-treated with the β-AR antagonist propranolol then exposed for 15 minutes to various concentrations of dabuzalgron, using the non-selective α1-AR agonist norepinephrine (NE) as a positive control. The reaction was stopped immediately and lysates were blotted for total and phospho-ERK (pERK). FIG. 4A. Representative Western blot. FIG. 4B. The EC50 was calculated from 4 concentrations of Dabuzalgron across 5 separate experiments. FIG. 4C. Summary of pERK/ERK for experiments using 5 different NRVM isolations. The average pERK/ERK ratio for each experiment was derived from at least 2 individual wells and normalized to the pERK/ERK ratio for vehicle treated NRVMs. FIG. 4D and FIG. 4E. […] Heart lysates were blotted for pERK and ERK. Results were compared using one way ANOVA with Tukey post-test. FIG. 4F.
Dabuzalgron protects neonatal rat ventricular myocytes from cell death due to doxorubicin. ERK1/2 activation contributes to the cardioprotective effects of dabuzalgron. […]
All results are presented as mean±SEM. […] EC50 for ERK activation was calculated using sigmoidal dose-response analysis (Prism).

[2] = tested on: wild type mice; assay: Indexed heart weight after 7-day gavage treatment in uninjured mice; type: in vivo, mouse; conditions: 10 μg/kg gavage twice daily for 7 days (FIG. 1B)
Description: FIGS. 1A-1C. […] FIG. 1A. Blood pressure (BP) and heart rate (HR) were measured non-invasively in male mice for 10 consecutive days using a CODA Volume Pressure Recording tail cuff system (Kent Scientific). All daily values represent the average of at least 20 cuff inflations. Mice were acclimatized to the apparatus for the first 5 days, during which no drug was administered. On Days 6-10, mice received Dabuzalgron (100 ng/kg-100 μg/kg) or water by gavage twice daily. HR and systolic BP are unaffected by 5 days of treatment with Dabuzalgron. FIG. 1B. Male mice were treated with Dabuzalgron 10 μg/kg by gavage twice daily for 7 days. Heart weight (HW, in mg) was indexed to tibia length (TL, in mm). FIG. 1C. Quantitative RT-PCR was performed using heart tissue snap frozen at the time of sacrifice. Target transcripts (ANP=atrial natriuretic peptide; MHCβ=myosin heavy chain beta; α-skAct=alpha skeletal actin) were quantified relative to two standard transcripts (Polr2a=DNA-directed RNA polymerase II, subunit A; TBP=TATA-binding protein).
To test the effect of an α1A agonist on cardiac hypertrophy, we administered dabuzalgron (1-100 μg/kg/day) or vehicle by gavage twice daily for 7 days. […] (FIG. 1B).

[3] = biological target: α1A (Homo sapiens, UniProt P35348); conditions: preclinical testing [9]; cited from earlier work

Structure (SMILES): Cc1c(OCC2=NCCN2)ccc(Cl)c1NS(C)(=O)=O [dabuzalgron, N-[6-chloro-3-(4,5-dihydro-1H-imidazol-2-ylmethoxy)-2-methylphenyl]methanesulfonamide]
- increase of pERK/ERK ratio [1]: roughly 1.5 fold
- heart weight indexed to tibia length, dabuzalgron vs water [2]: no difference
- α1A selectivity [3]: excellent
